The list shows a part of the results, in another mix than the full data. Results filed as inconclusive are left out. Active and inactive are the calls of the source. The call rests on the fitted dose curve; in most records, active means well fitted curve in the direction sought with a large enough effect in the signal ratio (not every such curve was filed as active); inconclusive means small, poorly fitted or top-dose-only effect, or a change in a side signal; inactive means flat fitted curve, though single readings scatter; the % refers to the signal ratio.
assay: IkB Signaling; settings: ABC-DLBCL IkBa-CBG/CBR dual luciferase ratio (green luciferase fused to IkBa over red control in OCI-Ly3 lymphoma cells), 4 h, scaled: untreated 0%, proteasome inhibitor 100%; at 57.1 µM (top of the series);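 further: 0% = basal untreated cells and 100% = reference inhibitor full response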
Description: NIH Molecular Libraries Screening Centers Network [MLSCN]
NIH Chemical Genomics Center [NCGC]
Nuclear factor kappa-B (NF-kappa-B) plays an important role in normal B cell development and survival. Diffuse large B cell lymphoma (DLBCL) is the most commonly observed type of non-Hodgkin's lymphoma. Gene expression analysis has identified an activated B cell-like subtype of DLBCL (ABC-DLBCL) which expresses known NF-kappa-B target genes. […] However, targets upstream of IKK have been largely unexplored and so nodes upstream of IKK in the NF-kappa-B pathway remain untested due to the lack of chemical probes.
A cell-sensor assay for I-kappa-B-alpha stabilization was developed with NIH investigator Dr. R. Eric Davis in Dr. Louis M. Staudt's laboratory. […] Following the addition of doxycycline to induce expression of the luciferases, the green luminescence in control cultures rises only slowly because the CBG fusion partner I-kappa-B-alpha is targeted by IKK activity for rapid degradation. In contrast, green luminescence rises rapidly in the presence of proteasome inhibitors or IKK inhibitors. The rise in red luminescence of CBR is not affected by proteasome or IKK inhibitors, and serves as normalization for cell number and nonspecific effects. […]
Keywords: IKK, I-kappa-B, IkB, IkBa, cytotoxicity, luminescence, MLSMR, MLSCN, NIH Roadmap, qHTS, NCGC

Q: Which IkBa stabilization activation does the source give for `O=[N+]([O-])C(Cl)(Cl)Cl` here?
A: Its IkBa stabilization activation is inactive: -1.55%.

Reference: PubChem BioAssay AID445 (National Center for Advancing Translational Sciences (NCATS), 2006)
